# In paper PMC8431798:
# Target: fluorescently labeled rabbit skeletal actin (rabbit) (UniProt P68135)
# Test: MST; fluorescently labeled rabbit skeletal actin at constant concentration, troponin complex titrated in 16 capillaries; Monolith NT.115; fit to the Kd model; n = 4-7
row,Substance,Kd [µM]
1,human cardiac troponin complex with cTnI-D127Y (cTn-D127Y) (from UniProt P63316 1-161; P19429 1-210; P45379 1-298),2.2
2,human cardiac troponin complex with cTnC-G34S (cTn-G34S) (from UniProt P63316 1-161; P19429 1-210; P45379 1-298),1.93
3,human cardiac wild type troponin complex (cTn-WT) (from UniProt P63316 1-161; P19429 1-210; P45379 1-298),2.01
